Data as given in patent publication US20110320392A1, “METHODS FOR PREDICTING CANCER RESPONSE TO EGFR INHIBITORS” (priority 2009, published 2011).

Test system: metastatic colorectal cancer (mCRC)
Test: progression-free survival of cetuximab-treated colorectal cancer patients stratified by Predictive Marker profile
Format: in vivo, human
Description: Over 100 CRC patients with colorectal cancer were biopsied from metastatic sites and the mutational status of KRAS was determined and gene expression data generated and reported Khambata-Ford et al.
These reported data were extracted in series matrix format from Gene Expression Omnibus (GEO) record GSE585112. The data from that study were scaled by the authors to mean intensity of 1500. Therefore, the data matrix was multiplied by a factor of 0.333 in order to reflect the mean intensity value of the data used to generate our predictive response (500). This direct linear relationship was confirmed by scaling experimental data to both values using Expression Console (Affymetrix, Santa Clara, Calif.) and observing the ratios on a probe by probe basis. […] The clinical response data and KRAS status were extracted from the supplementary files provided by Khambata-Ford et al.
The Predictive Markers set forth in Table 1 were imported into R for diagonal linear discriminant analysis (“DLDA”) according to Balko et al.
Data were separated into three datasets: KRAS wildtype, KRAS-mutant, or all patients combined. After sensitivity prediction on each of the datasets, the results were imported into Excel (Microsoft, Redmond, Wash.) and cross referenced with response and progression free survival (PFS).
All statistical analyses were performed using Prism (Graphpad, La Jolla, Calif.) and checked using JMP (SAS, Cary, N.C.). For comparisons of median progression free survival, the 2-tailed Mann-Whitney U test was performed between groups predicted to be sensitive and those predicted to be resistant. Kaplan-Meier survival curves were generated based on the PFS data reported by Khambata-Ford et al and analyzed by the log-rank statistic. These analyses were performed on only the KRAS-wildtype patient data first, and then repeated on all patient data as well as the KRAS-mutant population independently for comparison.

[1] = entire cohort regardless of KRAS status, 'resistant' subgroup
[2] = entire cohort regardless of KRAS status, 'sensitive' subgroup
[3] = mCRC KRAS-wildtype patients predicted 'resistant' (180-gene profile)
[4] = mCRC KRAS-wildtype patients predicted 'sensitive' (180-gene profile)

cetuximab
mean PFS [1]: 60.5 days
median PFS [1]: 57.5 days
mean PFS [2]: 104.7 days
median PFS [2]: 60 days
mean PFS [3]: 63 days
median PFS [3]: 56 days
mean PFS [4]: 117 days
median PFS [4]: 88 days
